Patent US20250179481A1, “COMPOSITIONS AND METHODS FOR TARGETING, EDITING, OR MODIFYING GENES” (Celyntra Therapeutics SA, priority 2021, published 2025)

Test system: primary T-cells
Experiment: Primary T-cell viability 24 hours post-transfection
Type: cell-based, human
Conditions: P<=0.05, data not shown
Method: 48 hours after isolation, the cells were harvested by centrifugation (300 g, RT, 5 minutes) and re-suspended in 20 μL at 50×10^6 cells mL^−1 in the supplemented P3 Primary Cell Nucleofector Kit buffer (Lonza). The cells were mixed with HDR templates and the suspension transferred to the RNPs immediately before transfection (Nucleofection program EH-115). After transfection, 80 μL of pre-warmed cultivation medium without IL-2 was added to the electroporation cuvettes. When using M3814 (Selleckchem), 80 μL of pre-warmed cultivation medium containing 2 μM M3814 final concentration without IL-2 was added to the electroporation cuvettes. After 10 minutes of incubation at 37° C., T-cells were transferred onto 96-well, flat-bottom, non-cell culture treated plates (Falcon) containing pre-warmed cultivation medium pretreated with 2 μM M3814 final concentration and 12.5 ng mL^−1 IL-2. The cells were seeded at a density of 0.25×10^6 cells mL^−1, or 1.3×10^6 cells mL^−1 in the experiment with M3814, and kept at 37° C., in 5% CO2 incubators. […] Insertion efficiency of CAR was measured after 7 days, and 11 days or 13 days post-transfection.
For the cell viability and GFP knock-in measurements, approximately 250,000 cells per sample were transferred onto 96-well V-bottom cell culture plates and assessed following a series of consecutive washing and staining steps. […]

## poly-L-glutamic acid [PGA]
  cell viability, treatment with PGA compared to without PGA: higher
